Measured values from patent publication US11028127B2, “Peptides capable of reactivating p53 mutants” (Yeda Research and Development Co. Ltd., priority 2013, dated 2021).

Tested on: Mut-p53
Assay: Total activity score over combined assays (Table 8)
Set-up: scale not given here
From the text: Several alternative and complementary methods to screen lead peptide candidates for conformational and functional effects on Mut-p53 were employed. For increased penetration of peptide across cell membranes each peptide contains 3-6 Arginine residues either as part of its sequence or added either at its N-terminus or its C-terminus. 40 peptides were also conjugated to myristoil fatty acid (myr) for enhanced fusion with cell membranes that would potentially lead to better delivery into cells. In-vitro based assays for evaluation were first performed, such as ELISA for assessment of p53 conformation and sequence-specific DNA binding of p53. Subsequently, the peptides' activity was examined in live cells by viability assays, p53 transcriptional activity on a luciferase reporter gene, and examination of p53 target genes in-vivo. Combination of these assays (all performed in a 96 well format) allowed the identification and validation of the peptides' effects on different p53 activities and their ability to confer such ability to Mut-p53 proteins.

Substance: pCAP8 (LTFEHYWAQLTS)
- Activity Score (Table 10 summary of activity of the peptides tested): 0
- AS (Activity Score) (total score of Table 7): 0
